For experiment [1], the target named is T1, human AR (Homo sapiens, UniProt P10275). The experiment can be described thus: AR whole cell competitive binding assay (COS-1 cells, 3H-DHT). The settings on record: read-out: AR Binding Ki, 1 nM 3H-DHT, Cheng-Prusoff.
Experiment [2] has as its target T1, human AR. Kind of experiment: Co-transfection assay, AR agonist activity (CV-1 cells, MTV-LUC reporter). In kind it is cell-based.

Chains of the proteins cited; added tags and fusions are not shown.
UniProt P10275, whole entry: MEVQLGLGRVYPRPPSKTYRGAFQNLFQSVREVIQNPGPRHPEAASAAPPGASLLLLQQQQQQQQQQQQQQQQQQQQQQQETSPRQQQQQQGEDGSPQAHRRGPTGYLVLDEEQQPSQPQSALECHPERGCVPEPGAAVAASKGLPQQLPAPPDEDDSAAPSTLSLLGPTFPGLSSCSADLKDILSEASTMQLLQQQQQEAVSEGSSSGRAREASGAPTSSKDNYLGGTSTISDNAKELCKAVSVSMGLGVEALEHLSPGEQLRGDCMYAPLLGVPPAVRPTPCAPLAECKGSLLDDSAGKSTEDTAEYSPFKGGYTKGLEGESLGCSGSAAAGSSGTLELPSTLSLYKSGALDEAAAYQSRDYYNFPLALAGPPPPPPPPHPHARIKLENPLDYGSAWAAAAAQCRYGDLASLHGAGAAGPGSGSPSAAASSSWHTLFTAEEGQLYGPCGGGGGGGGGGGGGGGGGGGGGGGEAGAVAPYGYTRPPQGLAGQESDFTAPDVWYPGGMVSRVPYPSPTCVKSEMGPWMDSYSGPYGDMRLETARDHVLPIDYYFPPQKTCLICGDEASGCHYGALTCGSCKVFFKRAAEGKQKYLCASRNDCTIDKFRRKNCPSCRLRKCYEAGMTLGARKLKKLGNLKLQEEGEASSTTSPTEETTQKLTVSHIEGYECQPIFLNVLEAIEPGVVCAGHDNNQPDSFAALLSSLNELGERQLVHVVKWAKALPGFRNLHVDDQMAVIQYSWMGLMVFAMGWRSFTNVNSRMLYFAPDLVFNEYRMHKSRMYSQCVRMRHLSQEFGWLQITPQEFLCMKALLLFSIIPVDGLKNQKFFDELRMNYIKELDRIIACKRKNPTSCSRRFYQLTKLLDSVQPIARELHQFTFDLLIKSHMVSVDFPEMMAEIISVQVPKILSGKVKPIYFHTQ

For the molecule `CC=C(CC)c1ccc2[nH]c(=O)cc(C(F)(F)F)c2c1`, the Ki in experiment [1] worked out at 36 nM. For the same molecule, the “AR Agonist CV-1 Cells Efficacy (%)” value in experiment [2] (percent maximal response relative to reference agonist DHT) is 48%. Further, the EC50 in experiment [2] (read-out: AR Agonist CV-1 Cells Potency, agonist potency EC50) worked out at 848 nM.

The Ki is the dissociation constant of the complex between target and ligand, obtained from inhibition or displacement. What is called EC50 is the concentration at which the effect is half-maximal.
